In brackets after ≈: the same amount, converted by molar mass.
Legend:
Lacticaseibacillus casei = assay: Compound was evaluated for growth inhibition against Lactobacillus casei ATCC 7469; type: functional, organism-based
Enterococcus faecium = assay: Compound was evaluated for growth inhibition against Streptococcus faecium ATCC 8043; type: functional, organism-based

| SMILES | IC50 (Lacticaseibacillus casei) [ng/mL] | IC50 (Enterococcus faecium) [ng/mL] |
| --- | --- | --- |
| CCC(Cc1cnc2nc(N)nc(N)c2n1)c1ccc(C(=O)NC(CCC(=O)O)C(=O)O)cc1 (racemic) | 0.26 (≈ 0.556 nM) | 2.7 (≈ 5.78 nM) |
| CC[C@@H](Cc1cnc2nc(N)nc(N)c2n1)c1ccc(C(=O)N[C@@H](CCC(=O)O)C(=O)O)cc1 | 0.23 (≈ 0.492 nM) |  |
| CC[C@H](Cc1cnc2nc(N)nc(N)c2n1)c1ccc(C(=O)N[C@@H](CCC(=O)O)C(=O)O)cc1 | 0.29 (≈ 0.62 nM) |  |

— ChEMBL document CHEMBL1123545 (J Med Chem, 1986)
